Assay results reported in publication doi:10.1101/2025.11.21.689824v1.

Test system: O=C(O)C[C@H](O)C(=O)O
Assay: purified protein
Details: 50 mM NAD+, potassium phosphate buffer, 1 nM enzyme

WT MDH (malate dehydrogenase) (Escherichia coli K-12)
Km: 1300 ± 150 µM | kcat: 20.6 ± 2.4 s⁻¹
